Measurements from PubChem BioAssay AID588511 (Johns Hopkins Ion Channel Center, 2011).
The entries are a selection whose mix differs from that of the whole data set. The source made the active and inactive calls.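 How the source made its calls: active means ratio plate-corrected score three or more library SD toward inhibition, starting fluorescence score within five deviations; inactive means the rest.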

By UniProt entry, the sequences of proteins in these tests, tags left out.
UniProt Q8BHY3, whole entry: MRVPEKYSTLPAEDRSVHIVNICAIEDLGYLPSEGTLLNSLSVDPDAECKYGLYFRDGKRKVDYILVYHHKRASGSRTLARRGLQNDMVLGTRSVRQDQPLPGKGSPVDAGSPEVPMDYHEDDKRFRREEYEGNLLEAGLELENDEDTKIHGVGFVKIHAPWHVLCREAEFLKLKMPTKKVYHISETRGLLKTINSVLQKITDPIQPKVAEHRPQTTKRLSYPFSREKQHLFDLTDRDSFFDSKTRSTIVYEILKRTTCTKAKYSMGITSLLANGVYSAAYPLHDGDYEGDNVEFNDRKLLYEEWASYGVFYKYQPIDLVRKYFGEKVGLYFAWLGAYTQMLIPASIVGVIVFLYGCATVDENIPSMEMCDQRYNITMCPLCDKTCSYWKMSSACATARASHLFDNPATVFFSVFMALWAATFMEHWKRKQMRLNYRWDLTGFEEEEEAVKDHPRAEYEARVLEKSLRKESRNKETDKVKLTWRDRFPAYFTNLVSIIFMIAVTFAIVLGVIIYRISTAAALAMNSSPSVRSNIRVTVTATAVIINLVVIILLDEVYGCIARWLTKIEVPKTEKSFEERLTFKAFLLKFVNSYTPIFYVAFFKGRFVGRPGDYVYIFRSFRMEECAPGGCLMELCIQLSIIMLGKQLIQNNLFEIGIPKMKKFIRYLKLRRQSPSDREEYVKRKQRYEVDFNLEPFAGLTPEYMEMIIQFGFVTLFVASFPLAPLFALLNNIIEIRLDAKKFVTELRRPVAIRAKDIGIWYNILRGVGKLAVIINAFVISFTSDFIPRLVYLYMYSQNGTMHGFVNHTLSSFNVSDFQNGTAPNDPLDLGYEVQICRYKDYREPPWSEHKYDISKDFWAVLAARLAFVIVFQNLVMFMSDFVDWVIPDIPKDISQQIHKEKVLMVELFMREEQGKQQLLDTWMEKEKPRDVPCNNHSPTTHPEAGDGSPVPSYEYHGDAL

target: Anoctamin-1 (Mus musculus) (UniProt Q8BHY3); test: TMEM16A chloride channel inhibitors, primary screen, cell-based, HTS (AID 588511); details: HEK293 TMEM16A/YFP iodide influx fluorescence, ionomycin; at 10 µM

SMILES | outcome
CCCOc1ccc(C(=O)NCC2(N(C)C)CCCCC2)cc1OC | inactive
CN1CCC(Nc2cccc(F)c2)CC1 | inactive
COc1cc(OC)c(C(=O)NCC2(N(C)C)CCCCC2)cc1OC | inactive
CN(C)c1cccc(C(=O)NCC2(N3CCCCC3)CCCCC2)c1 | inactive
COc1ccc(CN(CCCl)CCCl)cc1Cl | inactive
CC(C)c1ccc(NC2CCN(C(=O)OC(C)(C)C)CC2)cc1 | inactive
COc1ccc(NC2CCN(C(=O)OC(C)(C)C)CC2)cc1 | inactive
CN1CCN(CCOC(=O)C(O)(c2ccccc2)c2ccccc2)CC1 | inactive
O=C(NCC1(N2CCOCC2)CCCCC1)c1cc(=O)[nH]c2ccccc12 | inactive
COc1cc(C(=O)NCC2(N3CCCCC3)CCCCC2)ccc1OC(F)F | inactive
O=C(NCC1(N2CCCCC2)CCCCC1)c1cccc(C(F)(F)F)c1 | inactive
O=C(NCC1(N2CCCCC2)CCCCC1)c1cccc([N+](=O)[O-])c1 | inactive
N#CC1(Nc2ccccc2)CCN(CCc2ccccc2)CC1 | inactive
CCN1CCC(Nc2ccc(Cl)cc2)CC1 | inactive
O=C(NCC1(N2CCCCC2)CCCCC1)c1ccc(OC(F)F)cc1 | inactive
Cc1ccc(OCC(C)C)c(CN(CCCl)CCCl)c1 | inactive
COc1cc(C(=O)NCC2(N(C)C)CCCCC2)ccc1OC(F)F | inactive
CCOC(=O)N1CCC(Nc2cccc(C)c2)CC1 | inactive
CCOC(=O)N1CCC(Nc2ccc(F)cc2)CC1 | inactive
COc1ccc(NC2CCN(CCc3ccccc3)CC2)c(OC)c1 | inactive

SMILES | outcome
O=C(NCC1(N2CCCCC2)CCCCC1)c1ccc(F)cc1 | inactive
CCOc1ccc(C)cc1CN(CCCl)CCCl | inactive
CCOC(=O)N1CCC(Nc2ccc(OC)cc2)CC1 | inactive
O=C(OC1CN2CCC1CC2)C1c2ccccc2Oc2ccccc21 (centres undefined) | inactive
N#CC1(Nc2ccccc2)CCN(Cc2ccccc2)CC1 | inactive
O=C(NCC1(N2CCOCC2)CCCCC1)c1cc2ccccc2o1 | inactive
Cc1cc(C)cc(N(C(=O)c2ccccc2)C2CCN(C(=O)OC(C)(C)C)CC2)c1 | inactive
O=C(NCC1(N2CCCCC2)CCCCC1)c1ccc(Cl)nc1 | inactive
CSc1ccccc1C(=O)NCC1(N2CCCCC2)CCCCC1 | inactive
O=C(NCC1(N2CCCCC2)CCCCC1)c1cccs1 | inactive
O=C(NCC1(N2CCCCC2)CCCCC1)c1ccc(=O)[nH]c1 | inactive
CC(C)(C)OC(=O)N1CCC(N(C(=O)c2ccccc2)c2ccc(F)cc2)CC1 | inactive
COc1ccc(C(=O)NCC2(N3CCCCC3)CCCCC2)c(OC)c1OC | inactive
COc1ccc(C(=O)NCC2(N3CCCCC3)CCCCC2)cc1 | inactive
CCCOc1ccc(C)cc1CN(CCCl)CCCl | inactive
CN1CCC(Nc2ccc(Cl)cc2)CC1 | inactive
CCC(CO)(C(=O)OC1CN2CCC1CC2)c1ccccc1 (centres undefined) | inactive
COc1cccc(C(=O)N(c2cc(C)cc(C)c2)C2CCN(C(=O)OC(C)(C)C)CC2)c1 | inactive
COc1cc(OC)cc(C(=O)NCC2(N3CCOCC3)CCCCC2)c1 | inactive
CCCOc1ccc(C(=O)NCC2(N(C)C)CCCCC2)cc1 | inactive

SMILES | outcome
O=C(O)C1(Nc2ccccc2)CCN(Cc2ccccc2)CC1 | inactive
CC(C)(C)OC(=O)N1CCC(Nc2ccccc2)CC1 | inactive
CN1CCC(Nc2ccc(F)c(Cl)c2)CC1 | inactive
CCOc1ncccc1C(=O)NCC1(N2CCOCC2)CCCCC1 | inactive
CN(C)c1ccc(C(=O)NCC2(N3CCCCC3)CCCCC2)cc1 | inactive
CCN1CCC(Nc2cccc(F)c2)CC1 | inactive
Fc1ccccc1NC1CCN(Cc2ccccc2)CC1 | inactive
Cc1ccc(C(=O)NCC2(N3CCCCC3)CCCCC2)o1 | inactive
COc1cc(OC)cc(C(=O)NCC2(N3CCCCC3)CCCCC2)c1 | inactive
CCCN1CCC(Nc2cc(OC)cc(OC)c2)CC1 | inactive
c1ccc(CN2CCC(Nc3ccccc3)CC2)cc1 | inactive
CN(C)C1(CNC(=O)c2cccc(C#N)c2)CCCCC1 | inactive
CC(C)(C)OC(=O)N1CCC(N(C(=O)c2ccccc2)c2ccc(Cl)cc2)CC1 | inactive
N#Cc1ccc(C(=O)NCC2(N3CCCCC3)CCCCC2)cc1 | inactive
O=C(OC1CN2CCC1CC2)C1c2ccccc2C=Cc2ccccc21 (centres undefined) | inactive
CCc1cc(C(=O)NCC2(N3CCCCC3)CCCCC2)sc1C | inactive
N/C(=N\O)c1c(N)no[n+]1[O-] | inactive
CCOC(=O)N1CCC(Nc2ccc(C)cc2)CC1 | inactive
COc1ccc(C(=O)NCC2(N3CCOCC3)CCCCC2)cc1OC | inactive
